Counter-ions that a name gives are not always drawn.
Settings: mouse, in vivo

blood exposure: limited blood exposure
SMILES: C[C@@H]1CCN(C(=O)CC#N)C[C@@H]1N(C)c1ncnc2[nH]ccc12 [tofacitinib citrate]
